Laboratory results reported in PubChem BioAssay AID1671463 (Sanford-Burnham Center for Chemical Genomics, 2021).
Only a part is listed here, and it is no random draw. The source made the active and inactive calls. Cut-off read from the data, not from the text of the source: active = activation above about 40%; inactive = the rest.

Chains of the proteins cited; added tags and fusions are not shown. Lines headed by an entry give the natural chain unless they say otherwise; changes in a name come on top.
UniProt P16066: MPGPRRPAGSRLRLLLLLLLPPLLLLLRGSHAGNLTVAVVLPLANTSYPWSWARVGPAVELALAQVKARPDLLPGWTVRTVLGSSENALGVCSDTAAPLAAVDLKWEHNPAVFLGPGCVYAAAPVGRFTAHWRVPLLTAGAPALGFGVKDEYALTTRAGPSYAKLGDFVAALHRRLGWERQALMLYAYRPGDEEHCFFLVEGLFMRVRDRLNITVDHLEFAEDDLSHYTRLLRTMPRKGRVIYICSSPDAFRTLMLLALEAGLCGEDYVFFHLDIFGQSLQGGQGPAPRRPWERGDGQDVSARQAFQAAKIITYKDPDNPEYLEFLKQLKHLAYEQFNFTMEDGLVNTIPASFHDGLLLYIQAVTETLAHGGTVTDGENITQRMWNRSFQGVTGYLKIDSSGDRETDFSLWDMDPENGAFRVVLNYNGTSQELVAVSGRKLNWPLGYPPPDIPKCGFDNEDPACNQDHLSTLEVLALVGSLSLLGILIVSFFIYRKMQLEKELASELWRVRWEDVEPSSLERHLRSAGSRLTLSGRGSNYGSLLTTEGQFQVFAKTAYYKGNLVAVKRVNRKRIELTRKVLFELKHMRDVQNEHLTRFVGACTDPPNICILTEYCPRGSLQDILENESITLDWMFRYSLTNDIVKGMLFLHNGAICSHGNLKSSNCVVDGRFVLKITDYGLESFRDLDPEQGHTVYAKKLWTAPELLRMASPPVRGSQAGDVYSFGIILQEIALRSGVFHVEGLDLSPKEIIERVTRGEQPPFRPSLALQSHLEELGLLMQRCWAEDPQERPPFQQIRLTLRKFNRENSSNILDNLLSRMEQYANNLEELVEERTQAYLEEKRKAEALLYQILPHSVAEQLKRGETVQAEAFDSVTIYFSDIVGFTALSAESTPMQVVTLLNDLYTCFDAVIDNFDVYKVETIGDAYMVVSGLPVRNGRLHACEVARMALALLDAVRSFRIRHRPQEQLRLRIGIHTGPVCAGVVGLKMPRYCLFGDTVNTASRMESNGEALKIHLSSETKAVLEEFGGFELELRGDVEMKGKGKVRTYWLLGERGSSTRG

These compounds were tested against Atrial natriuretic peptide receptor 1 (Homo sapiens) (UniProt P16066) (assay: GC-A stimulated cGMP production enhancers – HEK293 GC-A cells, cGMP TR-FRET, EC30 ANP, primary screen (AID 1671463)). Settings: at 10 µM, stronger effect = higher value, 0% at EC30 ANP, 100% saturating ANP.

SMILES | activation
Clc1ccc(Cl)c(NC2=NCC(CBr)S2)c1 (centres undefined) | inactive: 9.57%
CN1CCCC(OC(=O)C(c2ccccc2)c2ccccc2)C1 (centres undefined) | inactive: -5.42%
COc1ccccc1OP(=O)(Nc1ccc(C)cn1)Oc1ccccc1OC | inactive: -5.56%
Cc1ccc(OP(=O)(Nc2nccs2)Oc2ccc(C)cc2)cc1 | inactive: 1.04%
CN(C(=O)Cc1ccc(Cl)c(Cl)c1)[C@H]1CCCC[C@H]1N1CCCC1 | inactive: -8.85%
Cc1ccc(N/C(=N/P(=O)(N2CCOCC2)N2CCOCC2)N2CCOCC2)cc1 | inactive: -3.17%
NC(=O)c1cc([N+](=O)[O-])cc([N+](=O)[O-])c1N | inactive: 1.65%
Oc1ccccc1CNc1ccccn1 | inactive: 0.36%
O=C(NC(Sc1ccncn1)C(Cl)(Cl)Cl)c1ccccc1 (centres undefined) | inactive: 2.61%
CC(C)CC(=O)NC(Sc1ccc(Cl)cc1)C(Cl)(Cl)Cl (centres undefined) | inactive: -1.79%
Nc1cc(N)c2nonc2c1[N+](=O)[O-] | inactive: -2.37%
CCn1c(=O)n(C2CCN(CC3CCCCCCC3)C[C@H]2CO)c2ccccc21 (some centres undefined) | inactive: 0.17%
CCOP(=O)(Nc1ccccc1)OCC | inactive: 0.28%
Cc1cc(SC(NC(=O)c2ccc(F)cc2)C(Cl)(Cl)Cl)ncn1 (centres undefined) | inactive: 1.3%
CN(C(=O)Cc1ccc(Cl)c(Cl)c1)[C@H]1CCCC[C@@H]1N1CCCC1 | inactive: -5.75%
Cc1ccc(NP(=O)(Oc2ccccc2F)Oc2ccccc2F)nc1 | inactive: -2.11%
CN(C)P(=O)(N(C)C)n1c(Nc2ccccc2)nnc1-c1ccccc1 | inactive: -6.19%
O=P(Nc1nc2ccc(Cl)cc2s1)(c1ccccc1)c1ccccc1 | inactive: -0.9%
O=C(O)c1ccccc1[As](=O)(O)O | inactive: 3.59%
CC(=O)Nc1ccc([As](=O)(O)O)cc1 | inactive: 6.19%
CCCC1OP(N)(=O)OCC1CC (centres undefined) | inactive: 2.63%
Nc1cccc2ccc([As](=O)(O)O)cc12 | inactive: 3.73%
CN(C(=O)Cc1ccccc1)C1CC[C@@]2(CCCO2)C[C@@H]1N1CCCC1 (some centres undefined) | inactive: -2.21%
CCN(N=Nc1nonc1N)c1nonc1N | inactive: 0.28%
O=C(Nc1cc([As](=O)(O)O)ccc1O)c1ccccc1 | inactive: 2.03%
O=P1(N(CCCl)CCCl)OCCCS1 (centres undefined) | inactive: -1.55%
O=C(O)CNc1ccc([As](=O)(O)O)cc1 | inactive: 4.28%
O=[N+]([O-])c1cccc(NC2=NCC(CBr)S2)c1 (centres undefined) | inactive: 1.67%
COC(=O)C1(C)COP(=O)(Nc2ccccc2)OC1 (centres undefined) | inactive: 2.72%
